Measurements published in PMC5862601 (Oncotarget, 2018).

Protein sequences, listed by entry. Tags and fused reporters are not part of them.
UniProt P29275, whole entry: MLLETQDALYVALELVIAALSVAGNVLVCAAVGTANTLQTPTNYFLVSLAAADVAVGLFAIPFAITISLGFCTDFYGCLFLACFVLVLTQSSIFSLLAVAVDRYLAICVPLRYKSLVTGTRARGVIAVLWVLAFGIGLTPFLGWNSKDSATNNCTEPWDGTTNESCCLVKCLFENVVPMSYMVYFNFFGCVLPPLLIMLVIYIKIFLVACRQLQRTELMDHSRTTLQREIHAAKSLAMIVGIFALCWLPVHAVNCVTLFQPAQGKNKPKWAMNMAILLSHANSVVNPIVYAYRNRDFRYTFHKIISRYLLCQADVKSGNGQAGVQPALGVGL

Legend:
[1] = target: A2A and A2BARs in intact primary human lymphocytes; experiment: Radioligand affinity at intact primary human T-lymphocytes, stimulated with phytohemagglutinin; type: binding; details: read-out: KD ± SEM; T-Lymphocytes stimulated (A2A > A2B); intact cells; homologous competition; tested as the radiolabelled form
HA-tagged human A2AAR = HA-tagged human A2AAR (Homo sapiens, UniProt P29274); experiment: Radioligand affinity at CHO-HA-A2A; type: binding; details: read-out: KD ± SEM, homologous competition, tested as the radiolabelled form
[2] = tested on: CHO-K1 cell membranes (non-transfected); experiment: Radioligand affinity (saturation or homologous competition) at CHO cells; details: tested as the radiolabelled form
human A2BAR = human A2BAR (Homo sapiens, UniProt P29275); experiment: Radioligand affinity at HEK or CHO-A2B; type: binding; details: tested as the radiolabelled form
[3] = target: A2A and A2BARs in intact primary human lymphocytes; experiment: Radioligand affinity at intact primary human T-lymphocytes, unstimulated; type: binding; details: T-Lymphocytes unstimulated (A2A > A2B), intact cells, homologous competition, tested as the radiolabelled form
human A2AAR = human A2AAR (Homo sapiens, UniProt P29274); experiment: Radioligand affinity at HEK or CHO-A2A; type: binding; details: read-out: KD ± SEM, saturation, tested as the radiolabelled form

C#CCn1c(=O)c2c(nc(C=Cc3cccc(OC)c3)n2C)n(CCCO)c1=O [MSX-2, 3-(3-hydroxypropyl)-7-methyl-8-(m-methoxystyryl)-1-propargylxanthine]
Kd [1]: 2.58 nM
Kd (HA-tagged human A2AAR): 22 nM
KD ± SEM [2]: No binding
KD ± SEM (human A2BAR): No binding
KD ± SEM [3]: High affinity binding
Kd ([3]; read-out: KD ± SEM): 3.57 nM
Kd (human A2AAR): 7.29 nM
